# Experimental data reported in ChEMBL document CHEMBL2311318, “Lead optimization of a dihydropyrrolopyrimidine inhibitor against phosphoinositide 3-kinase (PI3K) to improve the phenol glucuronic acid conjugation” (Bioorg Med Chem Lett, 2013).
# Experiment: Clearance in BALB/c nu mouse at 10 mg/kg, iv
# Format: ADME, organism-based
# Design: dose 10 mg/kg, route intravenous
# Conditions: in vivo
smiles,measurement,value
Nc1ncc(-c2nc(N3CCOCC3)nc3c2CCN3c2cccnc2)cn1,clearance,35.9 mL/min/kg
